In assay [1] the target is T1, Mitogen-activated protein kinase kinase kinase 12 (Homo sapiens, UniProt Q12852).
T1 sequence (Q12852 whole entry): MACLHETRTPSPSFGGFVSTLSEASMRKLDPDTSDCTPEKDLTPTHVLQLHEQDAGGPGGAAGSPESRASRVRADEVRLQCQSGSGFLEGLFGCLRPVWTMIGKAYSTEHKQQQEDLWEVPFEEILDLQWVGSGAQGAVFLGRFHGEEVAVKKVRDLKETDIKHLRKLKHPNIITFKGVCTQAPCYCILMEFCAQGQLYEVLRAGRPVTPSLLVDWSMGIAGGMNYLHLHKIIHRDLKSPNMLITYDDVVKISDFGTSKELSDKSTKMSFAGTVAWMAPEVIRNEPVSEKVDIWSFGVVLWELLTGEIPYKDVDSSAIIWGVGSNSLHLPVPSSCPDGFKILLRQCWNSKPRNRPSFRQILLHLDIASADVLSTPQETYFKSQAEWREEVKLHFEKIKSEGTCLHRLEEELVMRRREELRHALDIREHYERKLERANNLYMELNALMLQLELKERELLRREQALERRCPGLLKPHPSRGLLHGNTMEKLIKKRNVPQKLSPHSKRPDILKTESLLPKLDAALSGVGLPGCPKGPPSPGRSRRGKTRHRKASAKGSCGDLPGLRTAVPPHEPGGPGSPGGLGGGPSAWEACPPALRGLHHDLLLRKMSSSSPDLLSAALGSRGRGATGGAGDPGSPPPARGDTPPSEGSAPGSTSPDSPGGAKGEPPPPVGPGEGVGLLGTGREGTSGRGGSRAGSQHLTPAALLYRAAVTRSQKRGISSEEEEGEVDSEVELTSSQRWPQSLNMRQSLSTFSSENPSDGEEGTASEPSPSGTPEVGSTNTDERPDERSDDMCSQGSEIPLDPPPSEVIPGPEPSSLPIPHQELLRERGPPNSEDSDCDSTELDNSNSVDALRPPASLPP
Briefly: Inhibition of DLK (unknown origin).

The target of assay [2] is T1, Mitogen-activated protein kinase kinase kinase 12. The assay can be described thus: Inhibition of human DLK transfected in HEK293 cells assessed as JNK phosphorylation after 5.5 hrs by Hoechst-33342 staining-based assay. The class given is cell-based.

Ki and IC50 data for one molecule are collected here from ChEMBL document CHEMBL3393025, “Discovery of dual leucine zipper kinase (DLK, MAP3K12) inhibitors with activity in neurodegeneration models” (J Med Chem, 2015).

As usually defined, the Ki is the dissociation constant of the complex between target and ligand, obtained from inhibition or displacement. Low readings indicate a stronger hold on the target, high ones a looser hold on the target. One may read the IC50 as the concentration that gives 50% inhibition.

In assay [1], `FC1(F)CCN(c2nc(Nc3cc(C(F)(F)F)ccn3)cc(C3CCNCC3)n2)C1` gave a Ki of 2 nM. Further, the IC50 in assay [2] turned out to be 410 nM.
